We go through one molecule from PMC7911104 (2021).

What all share (test): SEC-MALS
For orientation: In gel filtration, larger molecules generally elute earlier.

Assay [1] has as its target T1, ALK6 (BMPR1B) intracellular domain, residues 168-502 (Homo sapiens (Human), UniProt O00238).
T1 chain: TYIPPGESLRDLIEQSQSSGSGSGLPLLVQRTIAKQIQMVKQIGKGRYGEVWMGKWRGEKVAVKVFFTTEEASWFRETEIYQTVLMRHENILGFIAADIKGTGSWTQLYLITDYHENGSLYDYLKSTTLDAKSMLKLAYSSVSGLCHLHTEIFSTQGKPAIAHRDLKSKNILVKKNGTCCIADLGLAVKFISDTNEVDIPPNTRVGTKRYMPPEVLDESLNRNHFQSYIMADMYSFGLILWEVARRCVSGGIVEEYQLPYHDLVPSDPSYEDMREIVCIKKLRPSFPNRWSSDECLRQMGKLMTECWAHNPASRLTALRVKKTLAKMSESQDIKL

The target in assay [2] is T2, ActRIIA (ACVR2A) intracellular domain, residues 191-488 (Homo sapiens (Human), UniProt P27037).
T2 chain: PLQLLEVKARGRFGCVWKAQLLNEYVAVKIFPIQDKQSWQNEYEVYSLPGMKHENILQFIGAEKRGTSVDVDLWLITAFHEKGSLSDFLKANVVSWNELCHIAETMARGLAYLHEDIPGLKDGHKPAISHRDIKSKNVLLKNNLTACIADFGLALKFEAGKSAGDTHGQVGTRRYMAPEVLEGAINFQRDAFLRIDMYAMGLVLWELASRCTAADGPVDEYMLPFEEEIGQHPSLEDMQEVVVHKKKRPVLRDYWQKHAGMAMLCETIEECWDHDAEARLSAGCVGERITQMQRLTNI

In assay [3] the target is T3, ALK5 (TGFBR1) intracellular domain, residues 162-503 (Homo sapiens (Human), UniProt P36897).
T3 chain: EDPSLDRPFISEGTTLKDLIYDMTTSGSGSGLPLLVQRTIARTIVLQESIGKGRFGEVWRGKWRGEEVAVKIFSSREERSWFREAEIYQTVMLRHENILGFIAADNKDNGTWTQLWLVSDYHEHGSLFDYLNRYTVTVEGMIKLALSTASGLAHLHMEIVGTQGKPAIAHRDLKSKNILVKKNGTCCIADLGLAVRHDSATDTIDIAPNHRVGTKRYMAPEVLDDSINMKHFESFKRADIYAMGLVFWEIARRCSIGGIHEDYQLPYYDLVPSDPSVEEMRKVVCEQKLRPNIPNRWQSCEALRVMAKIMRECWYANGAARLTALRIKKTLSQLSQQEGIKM

B1: FKBP12.6 (FKBP1B), full length, recombinant (protein)
chain: MGVEIETISPGDGRTFPKKGQTCVVHYTGMLQNGKKFDSSRDRNKPFKFRIGKQEVIKGFEEGAAQMSLGQRAKLTCTPDVAYGATGHPGVIPPNATLIFDVELLNLE
Regarding B1, the binding result in assay [1] is recorded as “binds”; in assay [2], “no binding”; in assay [3] it was “binds”.
